Compounds with a hit are over-represented: about 2.1% of the library has one in this group of screens.
MITF TRPM1 HTS: activators of MITF-driven TRPM1 promoter reporter, primary screen, cell-based, SK-MEL-5, luciferase, single point. SK-MEL-5 TRPM1-promoter luciferase, 24 h; % of positive control, neutral wells = 0. activation, % at 12.5 µM. 300,000 tested, 0.75% active;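 active = mean activation of at least 80% with every replicate also reaching 80%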;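 also: 0% = neutral control wells and 100% = parthenolide positive control wells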
PGC1a acetyl inh: inhibitors of PGC1a acetylation signal, primary screen, cell-based, U2OS, AlphaScreen, inhibitor mode | AlphaScreen anti-acetyl-lysine; with virally co-expressed GCN5 acetyltransferase | 350,000 tested, 0.17% active | inhibition, % at 15.6 µM;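 active = every replicate shows inhibition of at least 40%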;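 also: 0% = neutral control wells and 100% = positive control wells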
MITF TRPM1 inh: inhibitors of MITF-dependent TRPM1 promoter reporter, primary screen, cell-based, SK-MEL-5, single point, luciferase. SK-MEL-5 TRPM1 promoter luciferase, 24 h. inhibition, % at 12.5 µM. 330,000 tested, 0.83% active;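 active = mean inhibition across replicates of 60% or more, whatever share of single replicates reaches that level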
miR122 inh: miR-122 Renilla sensor signal increase in Huh7, primary screen, miR-122 inhibitor project, cell-based, single point, plate reader | AID 602342, 2012 | 340,000 tested, 0.3% active | Huh7 miR-122 Renilla luciferase sensor, 48 h; neutral wells = 0, positive control = 100 | activation (reporter increase), % at 12.5 µM;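 active = mean replicate activation score at least 90 and every replicate individually at or above 90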;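 also: higher luciferase means less miR-122 activity so hits act as miR-122 inhibitors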
UUG fidelity: modulators of start codon recognition fidelity in yeast; activity score, % at 18.7 µM; actives 0.13% (n = 350,000); S. cerevisiae UUG-firefly luciferase reporter, luminescence/redox ratio;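 active = replicate mean at a twofold rise or more, about +100% in these data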;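 note: firefly luciferase made from a UUG start codon reports start codon fidelity; reporter light over untreated wells divided by growth signal over untreated wells; some hits fall short of that in this replicate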
Wnt bcat act: Wnt/beta-catenin pathway activators, primary screen, cell-based, plate reader, single point. activation, % at 9.35 µM. AID 743398, 2014. Wnt/beta-catenin reporter cell assay, activator. 300,000 tested, 1.2% active; in the data active = activation above about 30%, passing the limit was not always enough;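 also: 0% = neutral control wells and 100% = positive control wells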
* marks the source's active call; other numbers are inactive results; · = no result given; ! = not confirmed by another sample; [ ] = dose if it differs, or a comment.

SMILES	MITF TRPM1 HTS	PGC1a acetyl inh	MITF TRPM1 inh	miR122 inh	UUG fidelity	Wnt bcat act
Cc1[nH]nc(Nc2ccc(Br)cc2)c1[N+](=O)[O-]	·	17	-62	·	·	4
Cc1ccc(Nc2n[nH]c(C)c2[N+](=O)[O-])cc1	96*	4	-94	0	-14	45*
Cc1[nH]nc(Nc2ccc(C(C)C)cc2)c1[N+](=O)[O-]	114*	·	-113	13	-7	1
Cc1[nH]nc(Nc2ccccc2)c1[N+](=O)[O-]	25	-2	-21	0	-14	22
CCc1ccc2nc3nc(C)cc(C)c3c(N)c2c1	18	10	-18	-1	-9	0
Cc1cc(C)c2c(N)c3ccccc3nc2n1	·	15	66*	10	23	-1
O=C(CNC(=O)c1cccc(F)c1)N/N=C/c1cc(Br)ccc1OC(=O)/C=C/c1ccco1	-65	11	67*	-8	·	-1
CS(=O)(=O)c1cccc(C(=O)Nc2ccc3c(c2)OCCCO3)c1	81*	·	-79	·	-14	14
O=C(Nc1ccc2c(c1)OCCO2)c1cccc(S(=O)(=O)N2CCOCC2)c1	55	·	-52	21	-13	45*
O=C(Nc1ccc2c(c1)OCCO2)C1CCN(S(=O)(=O)c2ccccc2)CC1	3	-1	-5	177*	7	-6
CO[C@H]1CN(C)C(=O)c2cc(NC(=O)Nc3ccccc3)ccc2OC[C@H](C)N(C(=O)CN(C)C)C[C@@H]1C	·	-2	·	-2[16.7 µM]	-7	·
C[C@@H](O)C#Cc1ccc([C@@H]2[C@H]3CN(C(=O)Nc4ccccc4)CCCCN3[C@H]2CO)cc1	·	11	·	11[16.7 µM]	3	·
Cc1ccc(C(=O)Cn2nnc(-c3cccs3)n2)cc1	43	-6	-43	-7	·	40*
Cn1/c(=N/NC(=O)c2ccccc2Br)sc2ccccc21	48	-17	-48	-3	·	51*
CC(C)c1ccc2c(c1)CCC1C(C)(CN)CCCC21C (stereo unspecified)	-97	-2	98*	-2	5	-11
CC(C)c1ccc2c(c1)CC[C@H]1[C@](C)(CN)CCC[C@]21C	-102	2	102*!	-2	-5	-1
O=C(CCCC(=O)c1ccc(F)cc1)c1ccc(F)cc1	131*	-5	-124	2	-32	37*
O=C(NC1CCCC(C(F)(F)F)C1)c1ccc([N+](=O)[O-])o1 (stereo unspecified)	-65	·	66*	·	-1	0
Nc1c(OS(=O)(=O)c2ccccc2)cccc1OS(=O)(=O)c1ccccc1	·	·	·	·	-11	60*
O=C1C2C3C=CC(C3)C2C(=O)N1c1ccccc1OS(=O)(=O)c1ccccc1 (stereo unspecified)	6	-12	-3	-2	-6	-2
Cc1cc(C)cc(NS(=O)(=O)c2ccc3c(c2)C(C)(C)C(=O)N3C)c1	6	·	-7	107*	7	-1
Cc1ccc(CCNS(=O)(=O)c2ccc3c(c2)C(C)(C)C(=O)N3C)cc1	·	·	·	·	-3	5
Cc1ccc(N2CN(CCC3=CCCCC3)CNC2=S)cc1	·	·	1	12	-24	49*
Cc1cccc(N2CN(Cc3ccco3)CNC2=S)c1	-18	·	22	·	·	-1
CCc1ccc(N2CN(CCc3ccccc3)CNC2=S)cc1	·	-3	·	-6	-29	-3
Cc1ccc(N2CN(Cc3ccco3)CNC2=S)cc1	-4	·	4	-13	·	36*
C[C@H]1CN([C@@H](C)CO)C(=O)c2cc(NC(=O)Nc3ccc4c(c3)OCO4)ccc2O[C@H]1CN(C)CC1CCCCC1	·	·	·	-5[16.7 µM]	3	·
C[C@H]1CCCCO[C@@H](CN(C)C(=O)Cc2ccccc2)[C@@H](C)CN([C@@H](C)CO)C(=O)c2cc(NC(=O)Cc3ccccc3)ccc2O1	·	-9	·	-7[16.7 µM]	13	·
COc1ccc(C2CC(c3cccs3)=NN2C(=O)CCl)cc1OC (stereo unspecified)	-83	·	83*	-3	-10	-3
COc1cc(C2CC(c3cccs3)=NN2C(=O)CCl)ccc1OC(F)F (stereo unspecified)	-65	·	65*	1	-21	14
Cc1noc(C)c1NC(=O)Nc1ccc2c(c1)C(=O)N([C@@H](C)CO)C[C@H](C)[C@H](CN(C)S(C)(=O)=O)O2	·	-4	·	3[16.7 µM]	0	·
Cc1ccc(-c2csc3nc4c5ccccc5c(NCCCN(C)C)nn4c(=O)c23)cc1	-85	-2	85*	-11	7	-25
COc1ccc(OC)c(Cc2nnc(CCC(=O)N3CCCCC3c3nccs3)o2)c1 (stereo unspecified)	57	13	-54	0	4	40*
Cc1cccc(Cc2nnc(CCC(=O)N3CCCCC3c3nccs3)o2)c1 (stereo unspecified)	9	14	-5	·	·	-1
O=C(C[C@H]1CC[C@@H](NC(=O)C2CCOCC2)[C@@H](CO)O1)NCC1CC1	·	0	·	·	·	·
Cc1ccccc1Cn1nnc(-c2cccc(C(=O)O)c2)n1	-1	6	5	-1	-37	39*
COc1ccccc1C#Cc1ccc2c(c1)[C@@H]1[C@@H](CCN1C(=O)CN1CCOCC1)[C@H](CO)N2	·	-3	·	·	·	·
COc1ccc(C2=NN(C(=O)CCC(=O)O)C(c3cccs3)C2)cc1 (stereo unspecified)	-8	·	7	·	·	0
COc1ccc(C2=NN3C(C2)c2ccccc2OC3c2cccs2)cc1 (stereo unspecified)	57	5	-69	·	·	49*
Cc1ccc(C2=NN3C(C(=O)c4ccccc4)Oc4ccccc4C3C2)cc1 (stereo unspecified)	·	-9	-32	114*	-18	43*

As entered above.
`COc1ccc(C2=NN3C(C2)c2ccccc2OC3c2cccs2)cc1` (stereo unspecified) | MITF TRPM1 inh = -69
`Cc1cccc(N2CN(Cc3ccco3)CNC2=S)c1` | MITF TRPM1 HTS = -18

Later entries
SMILES	MITF TRPM1 HTS	PGC1a acetyl inh	MITF TRPM1 inh	miR122 inh	UUG fidelity	Wnt bcat act
N#C[C@H]1[C@H](c2ccc(-c3ccccc3F)cc2)[C@@H](CO)N1C(=O)C1CCOCC1	·	-1	·	·	-7	·
CCCS(=O)(=O)c1cnc(C2COc3ccccc3O2)nc1N (stereo unspecified)	-70	·	72*	·	-84	-9
S=c1nc(C2COc3ccccc3O2)[nH][nH]1 (stereo unspecified)	4	2	-2	-8	-11	1
O=C1CCC(c2ccccc2)c2ccccc21 (stereo unspecified)	·	-1	·	1	-4	52*
COC(=O)C[C@@H]1CC[C@H]2[C@@H](COc3ccc(NC(=O)c4ccccc4OC)cc3C(=O)N2C)O1	·	9	·	17[16.7 µM]	-13	·
C[C@@H]1CN([C@@H](C)CO)C(=O)c2cc(N(C)C)ccc2O[C@@H]1CN(C)Cc1ccc(C(=O)Nc2ccccc2N)cc1	·	-3	·	254*[16.7 µM]	-6	·

Structures listed so far printed as active in miR122 inh.
SMILES	MITF TRPM1 HTS	PGC1a acetyl inh	MITF TRPM1 inh	miR122 inh	UUG fidelity	Wnt bcat act
O=C(Nc1ccc2c(c1)OCCO2)C1CCN(S(=O)(=O)c2ccccc2)CC1	3	-1	-5	177*	7	-6
Cc1cc(C)cc(NS(=O)(=O)c2ccc3c(c2)C(C)(C)C(=O)N3C)c1	6	·	-7	107*	7	-1
Cc1ccc(C2=NN3C(C(=O)c4ccccc4)Oc4ccccc4C3C2)cc1 (stereo unspecified)	·	-9	-32	114*	-18	43*
C[C@@H]1CN([C@@H](C)CO)C(=O)c2cc(N(C)C)ccc2O[C@@H]1CN(C)Cc1ccc(C(=O)Nc2ccccc2N)cc1	·	-3	·	254*[16.7 µM]	-6	·
